Experimental data taken from patent US11268958B2, “Bacteria-specific labeled substrtates as imaging biomarkers to diagnose, locate, and monitor infections” (THE JOHNS HOPKINS UNIVERSITY, priority 2012, dated 2022).

Tested on: E. coli
Details: mouse, in vivo

OC[C@@H](O)[C@@H](O)[C@H](O)[C@@H]([18F])CO [[^18F]FDS, 2-[^18F]-fluorodeoxysorbitol]
sites of PET signal concentration: infected right thigh, gall bladder, intestine, and bladder
